Literature values in patent US20070021391A1, “Preventive/remedy for urinary disturbance” (priority 2003, published 2007).

Amino acid sequences for entries named in this document (tags omitted). Residues count along the entry.
UniProt O42275, 24-633: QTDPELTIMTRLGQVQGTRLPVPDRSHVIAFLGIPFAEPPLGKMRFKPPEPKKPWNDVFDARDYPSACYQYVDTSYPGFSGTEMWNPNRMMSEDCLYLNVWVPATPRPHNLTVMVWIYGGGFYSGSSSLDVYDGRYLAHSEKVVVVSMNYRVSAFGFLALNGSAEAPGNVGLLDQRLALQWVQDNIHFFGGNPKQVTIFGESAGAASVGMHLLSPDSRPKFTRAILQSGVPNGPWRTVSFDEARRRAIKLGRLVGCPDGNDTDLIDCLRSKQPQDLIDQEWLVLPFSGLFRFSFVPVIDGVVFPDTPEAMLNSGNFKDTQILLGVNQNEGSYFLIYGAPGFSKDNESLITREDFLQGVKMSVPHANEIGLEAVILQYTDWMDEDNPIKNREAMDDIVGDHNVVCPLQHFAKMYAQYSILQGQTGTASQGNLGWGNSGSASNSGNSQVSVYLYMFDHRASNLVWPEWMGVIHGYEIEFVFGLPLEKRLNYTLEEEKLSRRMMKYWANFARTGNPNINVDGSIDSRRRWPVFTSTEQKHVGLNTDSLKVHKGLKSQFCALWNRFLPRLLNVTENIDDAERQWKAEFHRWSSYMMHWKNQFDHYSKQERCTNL
UniProt P81908, whole entry: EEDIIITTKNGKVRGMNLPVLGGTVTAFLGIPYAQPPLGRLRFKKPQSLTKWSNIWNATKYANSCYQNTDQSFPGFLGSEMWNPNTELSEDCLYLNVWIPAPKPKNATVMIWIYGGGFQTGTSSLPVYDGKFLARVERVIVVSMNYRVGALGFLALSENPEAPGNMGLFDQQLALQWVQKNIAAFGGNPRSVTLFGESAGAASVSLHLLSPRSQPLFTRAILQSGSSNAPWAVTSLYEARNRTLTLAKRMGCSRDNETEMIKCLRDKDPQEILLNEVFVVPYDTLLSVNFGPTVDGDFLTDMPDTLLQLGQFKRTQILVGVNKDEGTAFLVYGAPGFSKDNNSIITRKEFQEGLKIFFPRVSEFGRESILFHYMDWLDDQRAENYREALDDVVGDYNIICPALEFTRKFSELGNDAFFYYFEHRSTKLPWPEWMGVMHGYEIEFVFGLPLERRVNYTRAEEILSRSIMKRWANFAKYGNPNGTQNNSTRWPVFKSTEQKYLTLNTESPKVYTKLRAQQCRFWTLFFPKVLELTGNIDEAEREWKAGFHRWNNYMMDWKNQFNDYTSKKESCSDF

Tests used:
Acetylcholine esterase = Acetylcholine esterase (Electrophorus electricus, UniProt O42275); settings: Electric eel; Literature 5 (tacrine line prints 6); read-out: Acetylcholine esterase inhibitory activity (IC50); cited from earlier work
Butyrylcholine esterase = Butyrylcholine esterase (Equus caballus, UniProt P81908); settings: read-out: Butyrylcholine esterase inhibitory activity (IC50); cited from earlier work

Compound: CNC(=O)Oc1ccc2c(c1)[C@]1(C)CCN(C)[C@@H]1N2C [Physostigmine]
- IC50 (Acetylcholine esterase): 10 µM
- IC50 (Butyrylcholine esterase): 0.03 µM
